Test results published in PubChem BioAssay AID588549 (Broad Institute, 2011).
Only a part is listed here, and it is no random draw. Some of these compounds have results that are not shown, active ones among them. The source made the active and inactive calls. No stated cut-off is given here; in the data, active means inhibition above about 8.5% (passing the limit was not always enough); inconclusive means no clear call, values can overlap the other calls.

These molecules were tested on Mycobacterium tuberculosis FadD28 fatty-acid-AMP ligase (assay: inhibitors of FadD28 bisubstrate probe binding, primary screen, biochemical, fluorescence polarization, single point (AID 588549)). Settings: at 12.5 µM, active compounds read high.

| SMILES | inhibition |
| --- | --- |
| CN(C)C1CCCC1OC(=O)C(O)(c1ccccc1)c1ccccc1 (stereo not given) | inactive: -0.09% |
| CN(C)c1ccc(C(=O)NCC2(N(C)C)CCCCC2)cc1 | inactive: -0.159% |
| Cc1ccccc1C(=O)NCC1(N2CCCCC2)CCCCC1 | inactive: -3.42% |
| COc1ccc(C(=O)NCC2(N(C)C)CCCCC2)cc1 | inactive: -1.96% |
| O=C(NCC1(N2CCCCC2)CCCCC1)c1cccc(Br)c1 | inactive: -0.194% |
| Cc1cc(C(=O)NCC2(N3CCCCC3)CCCCC2)ccc1[N+](=O)[O-] | inactive: -2.86% |
| CCN1CCCC(OC(=O)C2(O)c3ccccc3C=Cc3ccccc32)C1 (stereo not given) | inactive: -2.77% |
| C=CCN1CCN(CCOC(=O)C(O)(c2ccccc2)c2ccccc2)CC1 | inactive: -0.721% |
| CN1[C@@H]2CC[C@H]1CC(OC(=O)C(O)(c1ccccc1)c1ccccc1)C2 (stereo not given in full) | inactive: -1.26% |
| O=C(NCC1(N2CCCCC2)CCCCC1)c1cc([N+](=O)[O-])ccc1Cl | inactive: -0.43% |
| Cc1ccc(C(=O)NCC2(N3CCCCC3)CCCCC2)cc1 | inactive: -3.69% |
| COc1cc(SC)ccc1C(=O)NCC1(N(C)C)CCCCC1 | inactive: -0.585% |
| CCN(CC)CC(C)C(C)OC(=O)C(O)(c1ccccc1)c1ccccc1 (stereo not given) | inactive: -0.72% |
| CC(C)N1C(=O)CC2(CCN(CCOC(=O)C(O)(c3ccccc3)c3ccccc3)CC2)C1=O | inactive: -4.14% |
| O=C(OC1CN2CCC1CC2)C(CO)(c1ccccc1)c1ccccc1 (stereo not given) | inactive: -0.704% |
| O=C(OCCN1CCCC1)C(O)(c1ccccc1)c1ccccc1 | inactive: -1.11% |
| CC(C)Oc1ccc(C(=O)NCC2(N(C)C)CCCCC2)cc1 | inactive: -0.382% |
| CN(C)c1cccc(C(=O)NCC2(N(C)C)CCCCC2)c1 | inactive: -3.33% |
| C=C(C)C#CC(O)(C(=O)OC1CCN(C)CC1)c1ccccc1 (stereo not given) | inactive: -1.56% |
| COc1ccc(Br)c(C(=O)NCC2(N3CCCCC3)CCCCC2)c1 | inactive: -21.7% |
| COc1cc(C(=O)NCC2(N(C)C)CCCCC2)c([N+](=O)[O-])cc1OC | inactive: -2.89% |
| CN(C)C1(CNC(=O)c2ccc(Br)cc2)CCCCC1 | inactive: -3.99% |
| O=C(NCC1(N2CCCCC2)CCCCC1)c1cccc(Cl)c1 | inactive: -0.699% |
| COc1ccc(Cl)cc1C(=O)NCC1(N(C)C)CCCCC1 | inactive: -2.3% |
| COc1cccc(C(=O)NCC2(N3CCCCC3)CCCCC2)c1 | inactive: -3.21% |
